Source: US9000154B2, “Rho kinase inhibitors” (Boehringer Ingelheim International GmbH, priority 2010, dated 2015)

Amino acid sequences for entries named in this document (tags omitted). Residues count along the entry.
UniProt O75116, 1-543 limits assumed: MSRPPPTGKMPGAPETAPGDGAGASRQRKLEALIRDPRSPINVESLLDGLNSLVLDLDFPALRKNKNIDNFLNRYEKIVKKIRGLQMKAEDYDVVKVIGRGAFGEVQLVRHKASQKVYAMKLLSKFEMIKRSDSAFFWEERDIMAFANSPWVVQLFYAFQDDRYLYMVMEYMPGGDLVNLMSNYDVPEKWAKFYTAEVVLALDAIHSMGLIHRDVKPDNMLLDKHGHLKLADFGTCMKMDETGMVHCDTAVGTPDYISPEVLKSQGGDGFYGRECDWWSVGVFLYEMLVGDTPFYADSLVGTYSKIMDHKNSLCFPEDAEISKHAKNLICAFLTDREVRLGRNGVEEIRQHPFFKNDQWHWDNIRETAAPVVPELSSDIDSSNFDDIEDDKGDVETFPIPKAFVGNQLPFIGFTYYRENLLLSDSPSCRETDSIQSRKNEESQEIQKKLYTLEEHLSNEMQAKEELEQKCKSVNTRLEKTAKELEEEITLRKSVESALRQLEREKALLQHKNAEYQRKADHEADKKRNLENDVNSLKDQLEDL

Target: ROCKII (1-543) (Homo sapiens, UniProt O75116)
Assay: IMAP Assay (fluorescence polarization, FAM S6 peptide)
Conditions: read-out: Assay 2 IC50; IMAP FP, 1 nM ROCKII (1-543), 100 μM ATP
Method: This assay is performed using FAM S6 substrate peptide (Catalogue #R7184) and IMAP FP Screening Express Kit detection reagents from Molecular Devices (Sunnyvale, Calif.) in IMAP kinase reaction buffer (Tris-HCl, pH 7.2, 10 mM MgCl2, 0.05% NaN3, 0.1% phosphate-free BSA) containing 1 mM DTT. Test compounds dissolved in neat DMSO at 0.3 mg/mL are serially diluted 1 to 3 for concentration response in 100% DMSO. The DMSO serial dilutions are further diluted 33.33-fold in kinase reaction buffer, and 10 μL of this buffer dilution is transferred to Corning black 96-well half area NBS plates for a final top concentration of 3 μg/mL in 1% DMSO. 10 μL aliquot of 3 nM ROCKII (1-543) diluted in kinase reaction buffer is added to each assay well for a final concentration of 1 nM kinase. […] The kinase reaction is stopped by addition of 60 μL IMAP progressive binding reagent (Catalog #R7284) diluted 400-fold in 1× Binding buffer A. After 30 min of incubation at room temperature, the plates are read for fluorescence polarization on Analyst Plate Reader using Ex 485 nm, Em 530 nm, and FL 505 dichroic mirror. […]
Where A, B, C, and D are fitted parameters (parameter B is fixed at zero POC), and x and y are the independent and dependent variables, respectively. The IC50 is determined as the inflection point parameter, C.

`N#Cc1ccc(-c2cnn(Cc3cccc(C(=O)Nc4nc5c(s4)C[C@@H](N4CCCCC4)CC5)c3)c2)cc1` showed an IC50 of 0.37 nM.
